According to patent publication US8003595B2, “Amino acid sequences facilitating penetration of a substance of interest into cells and/or cell nuclei” (Cellectis, priority 2000, dated 2011):
Where “and” joins values, the source holds several entries; their conditions need not be identical. Identical values can stand only once.

Test system: Caco-2 cell monolayers
Experiment: Insulin and HBP-insulin conjugates trans-epithelial transport
Settings: for TEER before incubation / TEER after transport: three inserts; for TEER after transport: 60 μg/ml
Procedure: The samples were washed again to eliminate uncoupled materials, and the conjugates were checked by SDS-Page electrophoresis analysis. […] 30 μg of each molecule was incubated on the Caco-2 cell monolayers.
Trans-epithelial transport experiments were carried out. […] The media of the upper and lower compartments were collected. […] For each condition, three inserts were used (triplicates).

With Insulin the TEER before incubation (1 h group) was 458 Ω · cm^2 and 592 Ω · cm^2 and 445 Ω · cm^2, the TEER after transport (1 h incubation) was 478 Ω · cm^2 and 561 Ω · cm^2 and 425 Ω · cm^2 and the TEER before incubation (4 h group) was 451 Ω · cm^2 and 606 Ω · cm^2 and 510 Ω · cm^2. The TEER after transport (4 h incubation) was 324 Ω · cm^2 and 325 Ω · cm^2 and 305 Ω · cm^2, the TEER before incubation (8 h group) was 442 Ω · cm^2 and 451 Ω · cm^2 and 498 Ω · cm^2 and the TEER after transport (8 h incubation) was 151 Ω · cm^2 and 145 Ω · cm^2. For the same substance, the “quantity in the cell lysate, of the initial loading” value (conjugates: after one hour of transport) was “approximately 0.004%”, the “levels in the apical medium” value (during the whole experiment) was “stayed stable” and the “amount remaining on the filters” value (filters on which Caco-2 cells were grown) was “only a small amount”.
